Measurements taken from PMC7114863 (Journal of Hepatology, 2009).

Columns and labels:
HuH6 replicons = test: Anti-HCV replicon assay in HuH6 cells; details: RT-qPCR; mean ± SD
[1] = test system: J6/JFH chimeric HCV reporter virus (J6/JFH-Rluc2a-FLAG); test: Antiviral assay with HCVcc virus in Huh-Lunet cells; format: cell-based, HCV genotype 2a; details: luciferase assay, three days
[2] = test system: HCV replicon in Huh 9-13 cells; test: HCV replicon clearance-rebound assay; format: cell-based; details: 100 IU/ml

IFNα 2b: recombinant IFNα 2b (intron® A) purchased from Schering Plough
Anti-HCV activity EC50, HuH6 (HuH6 replicons): 22 ± 5.4 IU/ml
Anti-HCV activity EC50, J6/JFH [1]: 1.9 ± 0.07 IU/ml
passages until clearance of replicon, drug alone [2]: 3 passages
